This is a selection; strong and weak results do not stand in their true shares. Records with an inconclusive call do not appear. The source made the active and inactive calls. Calls come from the whole dose curve; as a rule, active = well fitted activation curve with a large enough effect in the repeat runs; inconclusive = weak or mixed curves; inactive = no such curve, though single readings can be large or run the other way.
% is set by controls: 0 for no effect and ±100 for the full control effect.

By UniProt entry, the sequences of proteins in these tests, tags left out. Where a name states a change or a piece, a line headed by the entry shows the natural chain unless it says otherwise.
UniProt Q9R1A7: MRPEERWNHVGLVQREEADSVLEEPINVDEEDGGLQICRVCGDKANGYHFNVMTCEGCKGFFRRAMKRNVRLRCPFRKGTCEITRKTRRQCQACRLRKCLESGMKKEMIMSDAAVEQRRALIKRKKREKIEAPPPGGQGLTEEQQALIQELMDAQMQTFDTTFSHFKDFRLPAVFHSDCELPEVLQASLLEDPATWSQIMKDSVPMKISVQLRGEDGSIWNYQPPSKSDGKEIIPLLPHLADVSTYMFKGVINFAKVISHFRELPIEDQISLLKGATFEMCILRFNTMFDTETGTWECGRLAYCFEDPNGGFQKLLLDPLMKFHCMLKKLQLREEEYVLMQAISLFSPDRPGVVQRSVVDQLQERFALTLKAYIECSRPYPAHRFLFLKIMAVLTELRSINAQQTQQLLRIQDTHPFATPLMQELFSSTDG

The target in the assay is Nuclear receptor subfamily 1 group I member 2 (Rattus norvegicus) (UniProt Q9R1A7). Briefly: Rat pregnane X receptor (rPXR) activation by small molecules, qHTS assay. Note: nearly all actives have a fitted effect of over 20% in size. The note with it: rPXR luciferase reporter cells, One-Glo luminescence, 24 h; stronger effect = higher value. An excerpt:
National Center for Advancing Translational Sciences [NCATS] NIH Chemical Genomics Center [NCGC] U.S. Environmental Protection Agency [EPA] National Institutes of Environmental Health Sciences [NIEHS] National Toxicology Program [NTP] Assay overview: The Pregnane X receptor (PXR), a ligand activated nuclear receptor plays a critical role in the regulation of genes involved in drug metabolism and transporters. PXR binds xenobiotics and when compounds interact with PXR produces enhanced expression of CYP3A genes. In humans PXR activation and CYP3A4 induction can be problematic due to their interactions with co-medicated drugs and decrease their efficacy or increase their own metabolism. However, there are known species-specific differences with regard to PXR activation that should be taken into account when animal PXR data are extrapolated to humans. A cell based rat PXR (rPXR) assay (developed by Puracyp, Inc., CA) was used to assess the activation of rPXR.
Assay Protocol Summary: rPXR cells were dispensed at 2,000 per well in 5uL of assay medium into white, solid-bottom 1536-well plates using a Multidrop Combi dispenser (Thermo Scientific). […] Then 5ul One-Glo assay reagent (Promega) was added to each plate by a Flying Reagent Dispenser (FRD, Aurora Discovery) and following 30 min incubation at room temperature, luciferase activity was quantified on a ViewLux plate reader (Perkin Elmer).
(In general: Quantitative high-throughput screening tests each substance at several concentrations.)
On to `CN(C(=O)Cc1ccccc1)[C@H]1CC[C@@]2(CCCO2)C[C@@H]1N1CCCC1`, for which the max activation was inactive: 1.06%. To `O=C(OC1CN2CCC1CC2)c1ccccc1` (configuration not stated) belongs inactive: 1.05%.

(Values after PubChem BioAssay AID1346983 (Tox21, 2019).)
